Laboratory results: patent US10150766B2, “P2X7 modulators” (Jansssen Pharmaceutica NV, priority 2014, dated 2018)
pIC50: −log10 of the molar value.

Sequences of proteins named here, by UniProt entry; tags and fusion partners are left off. A change or cut given only in a name is not applied to a line headed by its entry.
UniProt Q64663: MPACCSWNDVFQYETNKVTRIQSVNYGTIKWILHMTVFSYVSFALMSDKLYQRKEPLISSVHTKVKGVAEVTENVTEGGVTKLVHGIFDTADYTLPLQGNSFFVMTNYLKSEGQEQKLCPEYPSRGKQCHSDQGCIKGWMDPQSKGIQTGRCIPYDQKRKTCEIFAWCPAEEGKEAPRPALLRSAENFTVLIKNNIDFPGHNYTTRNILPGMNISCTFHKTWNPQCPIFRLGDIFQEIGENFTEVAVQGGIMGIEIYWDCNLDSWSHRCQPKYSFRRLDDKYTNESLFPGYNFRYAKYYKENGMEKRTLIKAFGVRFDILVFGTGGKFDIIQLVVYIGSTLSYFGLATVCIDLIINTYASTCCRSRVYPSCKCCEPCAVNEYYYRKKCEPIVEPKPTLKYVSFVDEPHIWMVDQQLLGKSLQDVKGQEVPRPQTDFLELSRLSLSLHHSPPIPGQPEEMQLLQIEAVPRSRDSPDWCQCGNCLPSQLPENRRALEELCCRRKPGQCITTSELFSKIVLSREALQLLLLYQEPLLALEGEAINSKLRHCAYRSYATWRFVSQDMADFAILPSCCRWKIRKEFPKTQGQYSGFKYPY

Each compound was assayed against rat P2X7 (Rattus norvegicus (Rat), UniProt Q64663) (assay: P2X7 antagonism in recombinant rat P2X7 cells (column headed P2X7 Rat IC50)).
Type: binding
Protocol: The in vitro affinity of the compounds of the invention for the rat and human P2X7 receptor was determined using a human peripheral blood mononuclear cells (PBMCs), a human whole blood assay, a Ca^2+ flux and radioligand binding assay in recombinant human P2X7 cells and recombinant rat P2X7 cells. In Tables 2, when the data cell has been left blank, it is intended to mean that the compound was not tested in that assay. The data represented in Tables 2 may represent a value from a single determination or when the experiment was run more than once, the data represents the average from between 2-12 runs.
human or rat P2X7-1321N1 cells were collected and frozen @ −80° C. On the day of the experiment, cell membrane preparations were made according to standard published methods. The total assay volume was 100 μl: 10 μl compound (10×)+(b) 40 μl tracer (2.5×)+50 μl membrane (2×). The tracer used for the assay was tritiated A-804598. The compound can be prepared as described in the literature. (Donnelly-Roberts, D. Neuropharmacology 2008, 56 (1), 223-229.) Compounds, tracer and membranes were incubated for 1 hour @ 4° C. The assay was terminated by filtration (GF/B filters pre-soaked with 0.3% PEI) and washed with washing buffer (Tris-HCl 50 mM). The IC50 generated in the binding assay was corrected for tracer concentration and affinity of the tracer to derive at the affinity (Ki) of the test compounds. […] Data are analyzed and graphed on Graphpad Prism 5.

First: Cc1nc(-c2ccc(F)cc2)c2c(n1)[C@@H]1CCC[C@H](C2)N1C(=O)c1ccc(F)c(Cl)c1Cl [Example 17, (2,3-dichloro-4-fluorophenyl)((6R,10S)-4-(4-fluorophenyl)-2-methyl-5,6,7,8,9,10-hexahydro-6,10-epiminocycloocta[d]pyrimidin-11-yl)methanone]
Second: Cc1nc(-c2ccn[nH]2)c2c(n1)[C@H]1CCC[C@@H](C2)N1C(=O)c1ccc(Cl)cc1Cl [Example 20, (2,4-dichlorophenyl)((6S,10R)-2-methyl-4-(1H-pyrazol-5-yl)-5,6,7,8,9,10-hexahydro-6,10-epiminocycloocta[d]pyrimidin-11-yl)methanone]
The pIC50 of the first is 0.79 log units higher: 5.75 for the first, 4.96 for the second.

With `Cc1nc(-c2ccn[nH]2)c2c(n1)[C@@H]1CCC[C@H](C2)N1C(=O)c1ccc(Cl)cc1Cl` [Example 5, (2,4-dichlorophenyl)((6R,10S)-2-methyl-4-(1H-pyrazol-5-yl)-5,6,7,8,9,10-hexahydro-6,10-epiminocycloocta[d]pyrimidin-11-yl)methanone] the pIC50 was under 5.00.
